Source: US20220204611A1 (Amgen, published 2022)
Where a chain is given by its changes, count along the chain named. Values belong to the binder of their own block, whether it stands above or below them.

What was measured:
[1] = molecular target: T1, human TREM2 on cells (human, UniProt Q9NZC2 19-230); assay: cell-based or functional assay
T1 sequence: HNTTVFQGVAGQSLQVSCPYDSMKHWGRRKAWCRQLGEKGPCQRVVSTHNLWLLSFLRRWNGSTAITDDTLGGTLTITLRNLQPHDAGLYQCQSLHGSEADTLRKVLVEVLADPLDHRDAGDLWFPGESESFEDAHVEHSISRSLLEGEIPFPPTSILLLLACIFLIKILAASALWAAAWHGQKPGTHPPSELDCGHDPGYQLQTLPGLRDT

[2] = molecular target: T2, cynomolgus TREM2 on transfected HEK293 cells (cynomolgus, UniProt A0A2K5UY34 49-260); assay: FACS, transfected HEK293 cells
T2 construct: also called Cyno TREM2
T2 sequence: T1 sequence with A10E, W60R, L89F, F125V, I157V, L193P, Y201H

[3] = molecular target: T3, mouse TREM2 on cells (mouse, UniProt Q99NH8 19-227); assay: FACS, transfected HEK293 cells
T3 construct: whole, on cells
T3 sequence (looked up): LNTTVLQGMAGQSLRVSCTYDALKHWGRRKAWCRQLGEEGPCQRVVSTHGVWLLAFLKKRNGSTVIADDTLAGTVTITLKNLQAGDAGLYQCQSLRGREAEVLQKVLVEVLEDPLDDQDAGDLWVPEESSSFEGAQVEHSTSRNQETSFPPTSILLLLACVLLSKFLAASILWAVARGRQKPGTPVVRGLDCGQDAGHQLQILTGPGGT

[4] = molecular target: T4, recombinant soluble human TREM2 protein (human TREM2 ECD-FlagHis) (human, UniProt Q9NZC2 19-174); assay: Octet BLI binning; competitor: load Ab 33B12
T4 sequence: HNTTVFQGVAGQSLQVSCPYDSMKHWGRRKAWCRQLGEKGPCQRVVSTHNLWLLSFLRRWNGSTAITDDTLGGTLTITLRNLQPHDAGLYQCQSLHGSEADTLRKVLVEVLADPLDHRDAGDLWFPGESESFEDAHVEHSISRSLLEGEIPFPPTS
Procedure: (§1) Each of sixteen different anti-TREM2 antibodies produced from hybridomas were quantitated and loaded onto one of the anti-human Fc sensors at 5 μg/mL for 2 minutes (“Load Antibody”). The sensor was then blocked with 100 μg/mL of an irrelevant human IgG2 antibody for 5 minutes. […] Next, each of the sixteen different anti-TREM2 antibodies (“Sandwich Antibody”) was added to the sensor at 5 μg/mL and allowed to bind for 5 minutes. All assay buffers contained 10 mM Tris (pH 7.6), 0.1% Triton X-100, 150 mM NaCl, 1 mM CaCl₂, and 1 mg/mL BSA. The assay was conducted at 25° C. Experimental kinetic results were fit to a 1:1 binding model.
(§2) However, if addition of the sandwich antibody produces a binding event, then the sandwich antibody binds to a different epitope on human TREM2 than the load antibody and the two antibodies are categorized into different epitope bins.

[5] = molecular target: T5, human TREM1 on a cell line stably expressing human TREM1/DAP12 (human, UniProt Q9NP99 21-234); assay: FACS, human TREM1/DAP12 cell line
T5 construct: signal peptide 1-20 left out

[6] = molecular target: T4, recombinant soluble human TREM2 protein …; assay: Octet BLI binning; competitor: load Ab 26A10
Procedure: as §1, §2

[7] = molecular target: T5, human TREM1 on a cell line stably …; assay: FACS on cell line stably expressing human TREM1/DAP12
[8] = molecular target: T4, recombinant soluble human TREM2 protein …; assay: Octet BLI, antibody on anti-human Fc sensor, 25 C
Procedure: (§3) To quantitate the binding affinity of agonist antibodies for human TREM2, association and dissociation rate constants as well as the equilibrium dissociation constant were determined using anti-human Fc (Kinetic) sensors on an Octet® HTX instrument (Pall ForteBio). Agonist anti-TREM2 antibodies were made up in DMEM null media, 250 μL at 10 μg/mL. The, 250 uL of assay buffer (10 mM Tris (pH 7.6), 0.1% Triton X-100, 150 mM NaCl, 1mM CaCl₂, and 1 mg/mL BSA) was added to the antibody solutions to a final volume of 500 μL and final antibody concentration of 5 μg/mL. The anti-human Fc sensor was pre-incubated in 200 μL of the assay buffer for a minimum of 10 minutes. The sensor was then regenerated for 5 seconds in 10 mM glycine pH 1.5. Test agonist anti-TREM2 antibodies were loaded onto the sensor for 2 minutes, and baseline measurements were taken for 2 minutes. […] The recombinant TREM2 proteins were allowed to associate with the antibody-loaded sensor for 10 minutes, and then dissociation was measured for 10 minutes. The assay was conducted at 25° C. Experimental kinetic results were globally fit to a 1:1 binding model in order to determine the association and dissociation rate constants as well as the equilibrium dissociation constant.

[9] = molecular target: T6, recombinant soluble cynomolgus TREM2 protein (cynomolgus TREM2 extracellular domain coupled to a Flag/His tag) (cynomolgus, UniProt A0A2K5UY34 49-204); assay: Octet BLI, antibody on anti-human Fc sensor, 25 C
T6 construct: extracellular domain; also called Cyno TREM2
T6 sequence: T4 sequence with A10E, W60R, L89F, F125V
Procedure: as §3

- pSyk fold over control [1]: 6 fold
- GM fold over irrelevant control antibody [2]: 21.7 fold
- GM fold over irrelevant control antibody [3]: 1 fold
- sandwich binding signal [4]: -0.014
B1: 33B12 (antibody, V domains shown)
VH: EVQLVESGGALVQPGGSLRLSCAASGFTFSSFGMSWVRQAPGKGLEWVSYISKSSFTIYYADSVKGRFTISRDNAKNSFYLQMNSLRDEDTAVYYCAREGGLTMVRGVSSYGLDVWGQGTTVTVSS
VL: not shown
notes: human IgG2 from hybridoma

- pSyk fold over control [1]: 4.8 fold
- GM fold over irrelevant control antibody [2]: 46 fold
- GM fold over irrelevant control antibody [3]: 0.9 fold
- GM fold over irrelevant control antibody [5]: 1.7 fold
- sandwich binding signal [6]: -0.017
- binding result [7]: no binding
B2: 26C10 (antibody, human IgG2, V domains shown)
VH: B1 VH with K53S, Y95F, A97V, L102I, L113M
VL: SFELTQPPSVSVSPGQTASITCSGDKLGDKYVCWYQQKPGQSPMLVIYQDTKRPSGIPERFSGSNSGNTATLTISGTQAMDEADYYCQAWDSSTVVFGGGTKLTVL
notes: human IgG2 from hybridoma

- pSyk fold over control [1]: 8.02 fold
- GM fold over irrelevant control antibody [2]: 89.6 fold
- GM fold over irrelevant control antibody [3]: 2.6 fold
- GM fold over irrelevant control antibody [5]: 1.1 fold
- binding result [7]: no binding
- koff [8]: 0.00053 s⁻¹
- kon [8]: 250000 M⁻¹ s⁻¹
- koff [9]: 0.0011 s⁻¹
- kon [9]: 700000 M⁻¹ s⁻¹
B3: 5E3 (antibody, human IgG2, V domains shown)
VH: QVQLVQSGAEVKKPGASVKVSCKASGYTFTGYYIHWVRQAPGLGLEWMGWINPYSGGTTSAQKFQGRVTMTRDTSISSAYMELSRLRSDDTAVYYCARDGGYLALYGTDVWGQGTTVTVSS
VL: DIQMTQSPSSLSASVGDRVTITCRASQGISNYLAWFQQKPGKAPKSLIYAASSLQSGVPSKFSGSGSGTDFTLTISSLQPEDFATYYCQQYSTYPFTFGPGTKVDIK
notes: human IgG2 from hybridoma
